The data set can be described thus: Body weight in HT-29 xenograft study (Example 1). It counts as in vivo, CB17SCID male mice. As to the method:
48 CB17SCID male mice were implanted with 2.5×10^6 HT29 cells. Growth of the tumor was calculated for each animal using a caliper and the equation: V=π×ab^2/6.
Mouse weight and tumor volume measurements were taken on days 0, 3, 6, 9, 12, 15, 18, 21, and 22 following randomization.

In the case of `[2H]C([2H])([2H])c1cc(Br)cc2c1O[C@H](C(F)(F)F)C(C(=O)O)=C2` [Compound A01, (S)-6-bromo-8-trideuteromethyl-2-(trifluoromethyl)-2H-chromene-3-carboxylic acid], the Body weight is listed as 22.7 g (Day 3, A01 10 mg/kg oral daily); 20.7 g (Day 9, A01 1 mg/kg oral daily); 21.2 g (Day 9, A01 10 mg/kg oral daily); 21.7 g (Day 12, A01 1 mg/kg oral daily); 20.8 g (Day 12, A01 10 mg/kg oral daily); 21.4 g (Day 15, A01 10 mg/kg oral daily). In addition, the Body weight by setting is: (Day 18, A01 10 mg/kg oral daily) 21.4 g; (Day 21, A01 10 mg/kg oral daily) 21.4 g; (Day 22, A01 10 mg/kg oral daily) 21.7 g.

The record behind these values is patent US12544356B2, “Combination of a chromene compound and a second active agent” (EUCLISES PHARMACEUTICALS, INC., priority 2016, dated 2026).
